Here are results for two compounds from ChEMBL document CHEMBL1944574, “Inhibition of monoamine oxidase by selected C6-substituted chromone derivatives” (Eur J Med Chem, 2012).

Chains of the proteins cited; added tags and fusions are not shown.
UniProt P27338, whole entry: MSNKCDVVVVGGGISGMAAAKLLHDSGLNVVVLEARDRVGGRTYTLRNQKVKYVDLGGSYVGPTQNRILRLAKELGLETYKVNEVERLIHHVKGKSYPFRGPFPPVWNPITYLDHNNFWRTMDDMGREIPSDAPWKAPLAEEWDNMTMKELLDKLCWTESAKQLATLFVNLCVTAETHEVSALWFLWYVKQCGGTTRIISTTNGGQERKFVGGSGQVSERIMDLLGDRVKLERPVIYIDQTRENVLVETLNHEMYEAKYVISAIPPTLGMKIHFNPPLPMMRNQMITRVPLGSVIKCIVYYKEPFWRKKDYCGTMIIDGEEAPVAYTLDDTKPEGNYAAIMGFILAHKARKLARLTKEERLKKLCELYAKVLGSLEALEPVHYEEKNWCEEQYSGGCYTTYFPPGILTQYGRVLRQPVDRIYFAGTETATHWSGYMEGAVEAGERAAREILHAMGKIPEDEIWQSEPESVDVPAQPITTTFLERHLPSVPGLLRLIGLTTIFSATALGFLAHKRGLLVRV

pIC50: −log10 of the molar value.

The test addresses Amine oxidase [flavin-containing] B (Homo sapiens, UniProt P27338). The experiment in a line: Inhibition of recombinant human monoamine oxidase B expressed in insect microsomes using kynuramine as substrate after 20 mins by fluorescence spectrophotometry. More on the design: species or system Microsome. An outline of the steps: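 Enzyme source: insect-cell microsomes with recombinant human MAO-A or MAO-B at 0.0075 mg protein/mL, with kynuramine as substrate. Buffer was potassium phosphate 100 mM, pH 7.4, made isotonic with 20.2 mM KCl. Six inhibitor concentrations (0–100 µM) spanned at least 3 log units. Incubation was 20 min at 37 °C, then stopped with 2 N NaOH. 4-Hydroxyquinoline was read by fluorescence ([…] nm as printed) against a 0.047–1.56 µM standard curve. IC50 came from sigmoidal fits of initial rate versus log inhibitor, in triplicate, mean ± SD.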

Consider `O=c1ccoc2ccc(OCc3ccc(F)cc3)cc12`, for which the negative-log IC50 (pIC50) was 8.08.

In the case of `O=c1ccoc2ccc(OCc3ccc(Cl)cc3)cc12`, the pIC50 was 8.70.
